Columns and labels:
Assay in all cases: radioligand competition, membranes
SSTR1 = target: T1, SSTR1 (Human, UniProt P30872 1-391)
T1 construct: whole, on cells; receptor expression cells in the cAMP assay; also called somatostatin receptor 1

The chains behind the UniProt entries cited, without tags or fusion partners. Where a name states a change or a piece, a line headed by the entry shows the natural chain unless it says otherwise.
UniProt P30872: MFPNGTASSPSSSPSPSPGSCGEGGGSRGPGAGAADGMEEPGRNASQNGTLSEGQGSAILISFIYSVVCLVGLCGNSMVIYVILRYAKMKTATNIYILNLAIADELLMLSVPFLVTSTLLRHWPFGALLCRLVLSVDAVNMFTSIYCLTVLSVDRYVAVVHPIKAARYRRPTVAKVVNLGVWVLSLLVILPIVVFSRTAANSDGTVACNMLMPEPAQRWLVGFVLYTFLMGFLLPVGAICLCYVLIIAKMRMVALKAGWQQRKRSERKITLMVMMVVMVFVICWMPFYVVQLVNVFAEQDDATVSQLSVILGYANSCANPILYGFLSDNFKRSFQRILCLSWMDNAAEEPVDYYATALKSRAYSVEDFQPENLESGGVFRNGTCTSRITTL
UniProt P32745: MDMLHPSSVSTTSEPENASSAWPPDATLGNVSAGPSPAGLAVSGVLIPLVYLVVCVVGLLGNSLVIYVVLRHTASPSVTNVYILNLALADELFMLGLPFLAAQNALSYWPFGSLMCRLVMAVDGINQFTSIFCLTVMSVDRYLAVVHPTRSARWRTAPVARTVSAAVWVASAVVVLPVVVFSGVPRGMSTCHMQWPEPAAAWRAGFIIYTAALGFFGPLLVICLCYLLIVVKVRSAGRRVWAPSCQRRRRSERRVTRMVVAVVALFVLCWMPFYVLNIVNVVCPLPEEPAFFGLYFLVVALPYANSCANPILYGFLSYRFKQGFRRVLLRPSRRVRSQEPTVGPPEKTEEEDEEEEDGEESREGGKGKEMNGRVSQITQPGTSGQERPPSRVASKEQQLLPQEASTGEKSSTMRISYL
UniProt P35346: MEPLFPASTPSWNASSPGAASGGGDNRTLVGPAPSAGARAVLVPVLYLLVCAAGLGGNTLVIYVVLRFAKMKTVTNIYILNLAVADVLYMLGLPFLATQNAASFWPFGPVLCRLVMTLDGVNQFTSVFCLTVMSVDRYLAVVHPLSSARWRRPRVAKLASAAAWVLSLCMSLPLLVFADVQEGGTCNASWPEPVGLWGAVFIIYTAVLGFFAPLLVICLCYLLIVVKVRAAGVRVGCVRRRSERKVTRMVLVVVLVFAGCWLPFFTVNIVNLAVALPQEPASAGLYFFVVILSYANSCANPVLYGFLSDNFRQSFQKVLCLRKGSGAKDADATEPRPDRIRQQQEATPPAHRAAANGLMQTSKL

SSTR3 = target: T2, SSTR3 (Human, UniProt P32745 1-418)
T2 construct: whole, on cells; receptor expression cells in the cAMP assay; also called somatostatin receptor 3

SSTR5 = target: T3, SSTR5 (Human, UniProt P35346 1-364)
T3 construct: whole, on cells; receptor expression cells in the cAMP assay; also called somatostatin receptor 5

Binder: SANSNPAMCPRERKAGCKNFFWKTFTSC (disialo sugar chain on Cys 9; D-Trp at 22; disulfide Cys17-Cys28) [A9C(disialo)-D-Trp22-SRIF28]
- Ki (SSTR1): 5.73 nM

Binder: SANSNPAMAPRERKAGCKNFFWKTFTSC (disialo sugar chain on Asn 5; disulfide Cys17-Cys28) [N5N(disialo)-SRIF28]
- IC50 (SSTR1): 3.02 nM

B1: S1-2C(disialo(Bn))-SRIF28 (peptide)
peptide: CCANSNPAMAPRERKAGCKNFFWKTFTSC
modifications: Ser 1 replaced by two consecutive Cys each with a disialo(Bn) sugar chain; disulfide Cys17-Cys28 (SRIF28 numbering)
- IC50 (SSTR3): 2.59 nM

B2: 30C(disialo)-SRIF28 (peptide)
peptide: SANSNPAMAPRERKAGCKNFFWKTFTSCTC
modifications: disialo sugar chain on Cys at position 30 (-W-Cys added after Cys28); disulfide Cys17-Cys28
- IC50 (SSTR5): 1.86 nM

— US20140315800A1 (published 2014)
